Values quoted from earlier work, collected in patent publication US20170240926A1, “METHODS FOR PRENYLATION OF PEPTIDES AND THEIR USE IN OVER-PRODUCTION OF FARNESENE AND GERANYLGERANYL TERPENES” (University of North Texas, priority 2016, published 2017).

By UniProt entry, the sequences of proteins in these tests, tags left out.
UniProt Q02293, whole entry: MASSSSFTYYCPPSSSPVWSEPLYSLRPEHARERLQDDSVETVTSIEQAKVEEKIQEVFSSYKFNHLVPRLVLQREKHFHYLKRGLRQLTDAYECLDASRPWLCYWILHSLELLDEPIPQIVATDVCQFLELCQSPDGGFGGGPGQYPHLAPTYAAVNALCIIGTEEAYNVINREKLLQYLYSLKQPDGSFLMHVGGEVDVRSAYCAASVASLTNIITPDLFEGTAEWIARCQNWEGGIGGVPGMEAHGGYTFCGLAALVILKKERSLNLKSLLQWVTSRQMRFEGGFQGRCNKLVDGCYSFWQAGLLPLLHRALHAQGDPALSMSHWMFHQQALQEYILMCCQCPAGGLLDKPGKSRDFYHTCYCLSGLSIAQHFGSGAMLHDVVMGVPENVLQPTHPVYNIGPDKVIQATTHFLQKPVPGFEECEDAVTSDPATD

Columns and labels:
FTase [1] = target: T1, FTase (Rattus norvegicus, UniProt Q02293+Q04631); conditions: dansylated peptide, 50 mM HEPPSO pH 7.8, 25° C.
FTase [2] = target: T1, FTase; conditions: 10 μM FPP, 0.4-10 μM dansylated peptide, 25-300 nM FTase, 50 mM HEPPSO pH 7.8, 25° C.

SMILES | Kd (FTase [1]) [nM] | kfarn (FTase [2]) [s⁻¹]
CC[C@H](C)[C@H](NC(=O)[C@H](CO)NC(=O)[C@H](CS)NC(=O)[C@H](CCCCN)NC(=O)[C@@H](NS(=O)(=O)c1cccc2c(N(C)C)cccc12)[C@@H](C)O)C(=O)N[C@@H](CO)C(=O)O | 3.4 | 3.8 ± 0.3
CC(C)C[C@H](NC(=O)[C@H](CC(N)=O)NC(=O)[C@H](CS)NC(=O)[C@H](CCCCN)NC(=O)[C@@H](NS(=O)(=O)c1cccc2c(N(C)C)cccc12)[C@@H](C)O)C(=O)N[C@@H](CCC(N)=O)C(=O)O | 8 | 1.6 ± 0.2
CC[C@H](C)[C@H](NC(=O)[C@H](CC(C)C)NC(=O)[C@H](CS)NC(=O)[C@H](CCCCN)NC(=O)[C@@H](NS(=O)(=O)c1cccc2c(N(C)C)cccc12)[C@@H](C)O)C(=O)N[C@H](C(=O)O)[C@@H](C)O |  | 0.74 ± 0.07
CC(C)C[C@H](NC(=O)[C@H](CS)NC(=O)[C@H](CCCCN)NC(=O)[C@@H](NS(=O)(=O)c1cccc2c(N(C)C)cccc12)[C@@H](C)O)C(=O)N[C@H](C(=O)N[C@@H](CO)C(=O)O)[C@@H](C)O | 5 | 0.35 ± 0.03
CC(C)C[C@H](NC(=O)[C@@H](NC(=O)[C@H](CS)NC(=O)[C@H](CCCCN)NC(=O)[C@@H](NS(=O)(=O)c1cccc2c(N(C)C)cccc12)[C@@H](C)O)[C@@H](C)O)C(=O)N[C@@H](CCC(N)=O)C(=O)O | 7 | 1.2 ± 0.1
CC[C@H](C)[C@H](NC(=O)[C@H](CS)NC(=O)[C@H](CS)NC(=O)[C@H](CCCCN)NC(=O)[C@@H](NS(=O)(=O)c1cccc2c(N(C)C)cccc12)[C@@H](C)O)C(=O)N[C@@H](CC(C)C)C(=O)O | 300 | 
CC[C@H](C)[C@H](NC(=O)CNC(=O)[C@H](CS)NC(=O)[C@H](CCCCN)NC(=O)[C@@H](NS(=O)(=O)c1cccc2c(N(C)C)cccc12)[C@@H](C)O)C(=O)N[C@@H](CCSC)C(=O)O | 3.6 | 4.0 ± 0.4
CC(C)[C@H](NC(=O)[C@H](C)NC(=O)[C@H](CS)NC(=O)[C@H](CCCCN)NC(=O)[C@@H](NS(=O)(=O)c1cccc2c(N(C)C)cccc12)[C@@H](C)O)C(=O)N[C@@H](CCC(N)=O)C(=O)O |  | 11 ± 1
C[C@@H](O)[C@H](NC(=O)[C@H](CS)NC(=O)[C@H](CCCCN)NC(=O)[C@@H](NS(=O)(=O)c1cccc2c(N(C)C)cccc12)[C@@H](C)O)C(=O)N[C@@H](CCCCN)C(=O)N[C@@H](Cc1ccccc1)C(=O)O | 6 | 0.24 ± 0.02
CC(C)C[C@H](NC(=O)[C@H](CO)NC(=O)[C@H](CS)NC(=O)[C@H](CCCCN)NC(=O)[C@@H](NS(=O)(=O)c1cccc2c(N(C)C)cccc12)[C@@H](C)O)C(=O)N[C@@H](CS)C(=O)O | 5 | 4.7 ± 0.5
CC(C)C[C@H](NC(=O)[C@H](CO)NC(=O)[C@H](CS)NC(=O)[C@H](CCCCN)NC(=O)[C@@H](NS(=O)(=O)c1cccc2c(N(C)C)cccc12)[C@@H](C)O)C(=O)NCC(=O)O | 3.4 | 0.059 ± 0.006
CSCC[C@H](NC(=O)[C@H](CC(C)C)NC(=O)[C@H](CO)NC(=O)[C@H](CS)NC(=O)[C@H](CCCCN)NC(=O)[C@@H](NS(=O)(=O)c1cccc2c(N(C)C)cccc12)[C@@H](C)O)C(=O)O | 8 | 7.0 ± 0.7
CC[C@H](C)[C@H](NC(=O)[C@H](CCCCN)NC(=O)[C@H](CS)NC(=O)[C@H](CCCCN)NC(=O)[C@@H](NS(=O)(=O)c1cccc2c(N(C)C)cccc12)[C@@H](C)O)C(=O)N[C@@H](Cc1ccccc1)C(=O)O |  | 0.74 ± 0.07
CSCC[C@H](NC(=O)[C@@H](NC(=O)[C@H](CS)NC(=O)[C@H](CCCCN)NC(=O)[C@@H](NS(=O)(=O)c1cccc2c(N(C)C)cccc12)[C@@H](C)O)[C@@H](C)O)C(=O)N[C@@H](CO)C(=O)O | 6 | 0.91 ± 0.09
CC[C@H](C)[C@H](NC(=O)[C@H](CCCCN)NC(=O)[C@H](CS)NC(=O)[C@H](CCCCN)NC(=O)[C@@H](NS(=O)(=O)c1cccc2c(N(C)C)cccc12)[C@@H](C)O)C(=O)N[C@@H](CO)C(=O)O | 4 | 0.64 ± 0.06
CC(C)[C@H](NC(=O)[C@H](CS)NC(=O)[C@H](CCCCN)NC(=O)[C@@H](NS(=O)(=O)c1cccc2c(N(C)C)cccc12)[C@@H](C)O)C(=O)N[C@H](C(=O)N[C@H](C(=O)O)[C@@H](C)O)C(C)C | 7 | 0.33 ± 0.03

SMILES | Kd (FTase [1]) [nM] | kfarn (FTase [2]) [s⁻¹]
CC[C@H](C)[C@H](NC(=O)[C@@H](NC(=O)[C@@H](NC(=O)[C@H](CS)NC(=O)[C@H](CCCCN)NC(=O)[C@@H](NS(=O)(=O)c1cccc2c(N(C)C)cccc12)[C@@H](C)O)[C@@H](C)O)[C@@H](C)CC)C(=O)O |  | 0.25 ± 0.03
CC[C@H](C)[C@H](NC(=O)[C@H](CS)NC(=O)[C@H](CCCCN)NC(=O)[C@@H](NS(=O)(=O)c1cccc2c(N(C)C)cccc12)[C@@H](C)O)C(=O)N[C@H](C(=O)N[C@@H](CCC(N)=O)C(=O)O)[C@@H](C)O | 3.6 | 1.1 ± 0.1
C[C@@H](O)[C@H](NS(=O)(=O)c1cccc2c(N(C)C)cccc12)C(=O)N[C@@H](CCCCN)C(=O)N[C@@H](CS)C(=O)N[C@@H](Cc1ccc(O)cc1)C(=O)N1CCC[C@H]1C(=O)N[C@@H](CC(=O)O)C(=O)O |  | 0.56 ± 0.05
CC[C@H](C)[C@H](NC(=O)[C@H](CO)NC(=O)[C@H](CS)NC(=O)[C@H](CCCCN)NC(=O)[C@@H](NS(=O)(=O)c1cccc2c(N(C)C)cccc12)[C@@H](C)O)C(=O)N[C@@H](CCSC)C(=O)O | 6 | 9.7 ± 0.9
CC[C@H](C)[C@H](NC(=O)[C@H](CS)NC(=O)[C@H](CCCCN)NC(=O)[C@@H](NS(=O)(=O)c1cccc2c(N(C)C)cccc12)[C@@H](C)O)C(=O)N[C@H](C(=O)N[C@@H](C)C(=O)O)C(C)C | 5 | 4.7 ± 0.5
CSCC[C@H](NC(=O)[C@H](CC(C)C)NC(=O)[C@H](CC(C)C)NC(=O)[C@H](CS)NC(=O)[C@H](CCCCN)NC(=O)[C@@H](NS(=O)(=O)c1cccc2c(N(C)C)cccc12)[C@@H](C)O)C(=O)O |  | 4.9 ± 0.5
CC[C@H](C)[C@H](NC(=O)[C@H](CC(N)=O)NC(=O)[C@H](CS)NC(=O)[C@H](CCCCN)NC(=O)[C@@H](NS(=O)(=O)c1cccc2c(N(C)C)cccc12)[C@@H](C)O)C(=O)N[C@@H](CCSC)C(=O)O | 5 | 3.5 ± 0.3
CSCC[C@H](NC(=O)[C@@H](NC(=O)[C@H](CC(C)C)NC(=O)[C@H](CS)NC(=O)[C@H](CCCCN)NC(=O)[C@@H](NS(=O)(=O)c1cccc2c(N(C)C)cccc12)[C@@H](C)O)C(C)C)C(=O)O | 6 | 8.2 ± 0.8
CC(C)C[C@H](NC(=O)[C@@H](NC(=O)[C@H](CS)NC(=O)[C@H](CCCCN)NC(=O)[C@@H](NS(=O)(=O)c1cccc2c(N(C)C)cccc12)[C@@H](C)O)[C@@H](C)O)C(=O)N[C@@H](C)C(=O)O |  | 0.015 ± 0.002
CC(C)C[C@H](NC(=O)[C@@H](NC(=O)[C@H](CS)NC(=O)[C@H](CCCCN)NC(=O)[C@@H](NS(=O)(=O)c1cccc2c(N(C)C)cccc12)[C@@H](C)O)C(C)C)C(=O)N[C@@H](C)C(=O)O |  | 0.51 ± 0.05
CSCC[C@H](NC(=O)[C@H](Cc1ccccc1)NC(=O)[C@H](CO)NC(=O)[C@H](CS)NC(=O)[C@H](CCCCN)NC(=O)[C@@H](NS(=O)(=O)c1cccc2c(N(C)C)cccc12)[C@@H](C)O)C(=O)O | 10 | 0.44 ± 0.04
CC(C)[C@H](NC(=O)[C@H](CO)NC(=O)[C@H](CS)NC(=O)[C@H](CCCCN)NC(=O)[C@@H](NS(=O)(=O)c1cccc2c(N(C)C)cccc12)[C@@H](C)O)C(=O)N[C@@H](CO)C(=O)O |  | 0.97 ± 0.09
CC(C)C[C@H](NC(=O)[C@@H](NC(=O)[C@H](CS)NC(=O)[C@H](CCCCN)NC(=O)[C@@H](NS(=O)(=O)c1cccc2c(N(C)C)cccc12)[C@@H](C)O)C(C)C)C(=O)N[C@@H](Cc1c[nH]cn1)C(=O)O |  | 0.32 ± 0.03
CC[C@H](C)[C@H](NC(=O)[C@H](CCCNC(=N)N)NC(=O)[C@H](CS)NC(=O)[C@H](CCCCN)NC(=O)[C@@H](NS(=O)(=O)c1cccc2c(N(C)C)cccc12)[C@@H](C)O)C(=O)N[C@@H](CO)C(=O)O | 12 | 2.5 ± 0.5
CSCC[C@H](NC(=O)[C@@H](NC(=O)[C@H](Cc1ccc(O)cc1)NC(=O)[C@H](CS)NC(=O)[C@H](CCCCN)NC(=O)[C@@H](NS(=O)(=O)c1cccc2c(N(C)C)cccc12)[C@@H](C)O)C(C)C)C(=O)O | 12 | 1.1 ± 0.1
